The experiment in a line: Selectivity index, ratio of IC50 for inhibition of recombinant rat DYRK1A kinase domain (1to 499 residues) extracted from bacteria to IC50 for inhibition of human haspin kinase domain (470 to 798 residues) extracted from bacteria using histone H3 (1 to 21) peptide as substrate.

Regarding `Cn1cc(-c2ccncc2)c2cc3ccncc3cc21`, the Ratio IC50 stood at 14.4.

The record behind these values is ChEMBL document CHEMBL6182870, “Synthesis and biological activity of 1H-pyrrolo[3,2-g]isoquinolines as Haspin kinase inhibitors” (Bioorg Med Chem, 2025).
